According to patent US20220016023A1, “METHOD FOR TREATING MYOPIA AND APPLICATION IN PREPARATION OF MEDICAMENT” (WENZHOU MEDICAL UNIVERSITY, priority 2018, published 2022):

System: form deprivation myopia
Settings: periocular injection of 0.1 ml of 10 μM prazosin, 2 weeks form deprivation; FDM+Vehicle 35.79; p<0.05; FIG. 6C

COc1cc2nc(N3CCN(C(=O)c4ccco4)CC3)nc(N)c2cc1OC [prazosin]
choroidal blood flow (ChBF signal points) of test eye: 37.01±6.26 ×10 3
